Like-named read-outs stand apart in the source and are kept apart here.
Columns and labels:
KDM4C = target: T1, KDM4C (Homo sapiens, UniProt Q9H3R0); experiment: AlphaScreen demethylase activity assay, KDM4C; format: biochemical; conditions: read-out: IC50 KDM4C
T1 construct: KDM4C 1-366 E.coli; made in house; host or cells: E. coli
T1 sequence (Q9H3R0 1-366): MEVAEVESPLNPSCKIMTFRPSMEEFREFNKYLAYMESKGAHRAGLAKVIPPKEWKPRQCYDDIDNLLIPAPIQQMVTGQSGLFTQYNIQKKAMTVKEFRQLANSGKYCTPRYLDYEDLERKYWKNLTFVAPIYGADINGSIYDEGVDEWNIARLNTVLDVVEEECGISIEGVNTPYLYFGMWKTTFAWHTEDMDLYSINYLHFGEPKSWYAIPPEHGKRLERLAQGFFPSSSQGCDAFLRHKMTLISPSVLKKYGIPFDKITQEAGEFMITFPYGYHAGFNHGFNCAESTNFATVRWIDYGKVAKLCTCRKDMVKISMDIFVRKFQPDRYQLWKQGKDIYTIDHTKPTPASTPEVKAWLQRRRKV
Description: (§1) IC50 values for KDM2–6 were measured using an AlphaScreen assay as described. The appropriate KDM (5 μl) was pre-incubated with an inhibitor (0.1 μl in DMSO) or DMSO for 15 min before the addition of 5 μl mixture of biotinylated peptide substrates, 2OG, ferrous ammonium sulfate (1–10 μM final) and ascorbate (100 μM final) to initiate the demethylation reaction. The reaction was quenched with 5 μl of 30 mM EDTA at predetermined reaction times for each enzyme (initial rate). Demethylated product was detected by addition of 5 μl of AlphaScreen donor and acceptor beads (AlphaScreen General IgG Detection Kit, 0.02 mg ml^−1 final each) pre-incubated with antibody. The plates were read after 1 h incubation in a BMG Labtech Pherastar FS plate reader. Data were normalized to a no enzyme control and IC50 values were calculated using nonlinear regression curve fits using GraphPad Prism. Assay buffer (50 mM HEPES pH 7.5, BSA (0.1% w/v) and Tween-20 (0.01% v/v)) was used throughout, except for dilution of stock ferrous ammonium sulfate solutions where water was used. The enzyme, substrate and antibody concentrations used are described in Supplementary Table 3. A fluorescence-based LSD1 inhibitor screening assay kit (Cayman, 700120) was used for KDM1/LSD1 assay. Assays for prolyl hydroxylase domain 2 and factor inhibiting HIF using matrix-assisted laser desorption/ionization–time of flight MS were performed as previously described. Prism 5.0 (GraphPad) was used to generate and to fit dose–response curves. IC50 values were determined by plotting percentage inhibition versus compound concentration relative to positive (vehicle) and negative (no enzyme) controls, using normalized dose–response (variable slope) fit. The reported values are the mean of multiple experiments (n≥3). The formaldehyde dehydrogenase coupled KDM assay was used to determine the mode of inhibition, using 0.5 μM His-KDM4A1–359. Prism 5.0 (GraphPad) was used to fit in mix-mode inhibition, to determine the kinetic parameters. Binding constants for CPs and H3(1–15)K9me3 were measured using biolayer interferometry (OctetRed 384, ForteBio) in buffer (50 mM HEPES (pH 7.5), 150 mM NaCl, 10 μM ammonium iron(II) sulphate). His-KDM4A1–359-Bio (70 nM) was immobilized onto super streptavidin biosensor and subjected to different peptide concentrations in buffer. Data analysis was performed using ForteBio Data Aalysis (v6.4).
(§2) Construct Expression [E] / nM [2OG] / µM [Fe(II)] / µM Peptide / nM Peptide sequence Antibody Source […]
(§3) Supplementary Table 3. AlphaScreen assay parameters for 2OG oxygenases used for this study. The table was dapted from 10. Assays were performed at 2OG concentration near the 2OG Km values determined experimentally.11 All enzymes were expressed and purified as described.10-12

KDM4A = target: T2, KDM4A (Homo sapiens, UniProt O75164); experiment: AlphaScreen demethylase activity assay, KDM4A; format: biochemical
T2 construct: KDM4A 1-359 E.coli; Hexa-His (N); made in house; host or cells: E. coli
T2 sequence (O75164 1-359): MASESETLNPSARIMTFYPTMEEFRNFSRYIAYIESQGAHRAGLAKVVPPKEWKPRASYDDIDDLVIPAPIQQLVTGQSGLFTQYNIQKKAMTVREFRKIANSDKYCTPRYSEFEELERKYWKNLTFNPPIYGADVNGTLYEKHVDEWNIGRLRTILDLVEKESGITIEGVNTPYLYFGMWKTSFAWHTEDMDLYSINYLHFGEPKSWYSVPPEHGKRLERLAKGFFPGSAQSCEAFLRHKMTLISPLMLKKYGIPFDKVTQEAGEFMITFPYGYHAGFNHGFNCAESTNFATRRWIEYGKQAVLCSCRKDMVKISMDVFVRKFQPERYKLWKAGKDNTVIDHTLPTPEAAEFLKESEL
Description: as §1, §2, §3

FLAG-KDM4A in HeLa cells = conditions: HeLa overexpressing FLAG-KDM4A, 3 µM
[1] = read-out: IC50 KDM4A, KDM4A 1-359

Substance	IC50 (KDM4C) [nM]	IC50 (KDM4A; [1]) [nM]	other results
(meDY)VYNTRSGWRWYTC [^DY1me^DY]	192	264	
DY(meV)YNTRSGWRWYTC [V2meV]	60	37	
DYVYNT(Cit)SGWRWYZC [R6Cit]	695	283	IC50 (KDM4A; read-out: IC50 KDM4A, KDM4A 1-359, listed as peptide 7): > 2400 nM
DYVYNT(KAc)SGWRWYZC [R6AcK]	5900	2400	IC50 (KDM4A; read-out: IC50 KDM4A, KDM4A 1-359, listed as peptide 6): > 2400 nM
DYVYNTASGWRWYTC [R6A]	3900	2700	IC50 (KDM4A; read-out: IC50 KDM4A, KDM4A 1-359, listed as peptide 4): > 2400 nM
DYVYNTFSGWRWYZC [R6F]	> 10000	5500	IC50 (KDM4A; read-out: IC50 KDM4A, KDM4A 1-359, listed as peptide 5): > 2400 nM
DYVYNTKSGWRWYZC [R6K]	112	24	
DYVYNTRSDAWRWYTC [G8^DA]	29	10	
DYVYNTRSGWRWY(meT)C [T13meT]	53	48	
DYVYNTRSGWRWYT(meC) [C14meC]	23	9	
DYVYNTRSGWRWYTC [Linear CP2]	144	172	
DYVYNTRSGWRWYTC-BRRRRRRRRR [CP2(polyR)]	0.8	1.8	Viability of transfected cells (FLAG-KDM4A in HeLa cells): No viable transfected cells; Concentration at which cytotoxicity with reduction in cell numbers was observed (HeLa cells): > 3000 nM
DYVYNTRSGWRWYZC [T13Z]	60	110	
LYVYNTRSGWRWYTC [^DY1^LY]	78	66	

— article PMC5384220, “Highly selective inhibition of histone demethylases by de novo macrocyclic peptides” (Nature Communications, 2017)
